AlphaSeq binding of Ab-14 light chain variants to a spike HR2 peptide

All variants were tested on one target, the spike HR2 peptide PDVDLGDISGINAS (SARS-CoV-2).

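The starting antibody came from a phage panning campaign against this peptide. This is the validation round: designs drawn from the data on random variants, tested in the same kind of assay. Several design methods are mixed in this list. The scFvs were displayed on barcoded MATa yeast, the peptide on MATalpha yeast. After mating in shaken culture at 30 °C for 16 h, diploids were selected and their barcode pairs sequenced. A regression on co-assayed BCL2-family reference pairs converts the normalised counts of each replicate to an apparent Kd. There are six technical replicates.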

Ab-14 is the parent antibody, in scFv form: VH, then a (GGGGS)3 linker, then VL. The heavy chain is unchanged in all variants.
VH: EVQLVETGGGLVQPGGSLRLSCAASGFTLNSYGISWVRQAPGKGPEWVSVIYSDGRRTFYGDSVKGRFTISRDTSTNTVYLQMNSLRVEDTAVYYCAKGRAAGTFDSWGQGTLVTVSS
VL: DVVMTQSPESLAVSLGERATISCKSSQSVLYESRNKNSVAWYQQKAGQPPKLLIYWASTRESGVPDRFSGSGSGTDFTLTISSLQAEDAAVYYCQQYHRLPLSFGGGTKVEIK

Variants are written as CDR1, CDR2 and CDR3 of the light chain (limits as in the source). Parent: KSSQSVLYESRNKNSVA, WASTRES, QQYHRLPLS.
This list holds designs with more than six substitutions.
Affinities are written as log10 Kd with Kd in nM; a lower number is a better binder.
A mean of the replicates is given; it leaves out those without a signal.
"nd" means that the variant was in the library but no mating with the target was seen in any replicate; the authors take this as a sign of poor binding, and no number exists.
The range of this assay differs from that of the first round, and the authors advise against merging the two.

The variant TLGTSTLEESRNKNSVA / EMSLREE / QSYNRLPLS showed 1.75 (6 of 6 replicates). The variant KVSEFMKGLMMRTDSIA / DNVTRYN / QQYDRLPLS showed 0.99 (6 of 6 replicates). The variant KSSGSVLYEDKNVNSVA / NASQRLS / QQYHRLPLS gave 0.06 (6 of 6 replicates). For TIGQTLMIGMRNRSNVA / EVSERLN / QQYDRLPLL, the assay gave 2.52 (6 of 6 replicates). With KISQMYRYEQQNHSSIA / EASTREE / QSYHRLPLS the result was 0.95 (1 of 6 replicates). The variant KLSDSIEKMASNADNIA / DETETNM / QQYYTLPLS gave 1.13 (5 of 6 replicates). With KSSISSDYEDRNDNSVA / NASQREH / QQYHRLPLS the result was 0.14 (6 of 6 replicates). For KLGQSVAMTTRNKNNVA / DLNERER / QQYHRLPLS, the assay gave -0.40 (6 of 6 replicates). With MISQAFLIGMKAKNSVA / QTNTREE / QQYDRLPLI the result was 0.82 (6 of 6 replicates).

The variant KLSPEEQYESRNKNSVA / NASLRES / QQYHRLPLS gave 0.10 (6 of 6 replicates). For KFSQSVMMGDRNKNSVA / KASTRLS / QQYHRLPLS, the assay gave 0.71 (6 of 6 replicates). For TVSQVHEMLSHIKNSVA / DMNTRES / QQYDRLPLS, the assay gave nd (0 of 6 replicates). The variant MISQLMNMGQFAINSVA / QASLRNE / QQYDRLPLM gave 1.55 (6 of 6 replicates). With HITMGMYVKGRYHSSIA / QAETRAK / QQYDRLPLI the result was 1.07 (2 of 6 replicates). With KIELGLTRYNNGYSAIA / NETQKAN / QQYSRLPLV the result was 0.57 (6 of 6 replicates). The variant NLNTEYYTGTSNWNNIA / HGSMVEA / QQYFQLPIQ gave 0.53 (6 of 6 replicates). With QLSWTSNQHSAGKDAVA / EAVHRDQ / QQYQRLPLT the result was 0.49 (6 of 6 replicates). With KMQQSVWYEQRNFNSVA / DGSTREQ / QQYHRLPLS the result was 0.07 (6 of 6 replicates).

For KISMLKNQTFEQSNNVA / EMVTREK / QQYNRLPLS, the assay gave 1.66 (6 of 6 replicates). For AFTESIFYGQRDSNAIA / GADVVEK / QQYFRFPLA, the assay gave 0.33 (6 of 6 replicates). With MLSDVTNGMARKHYSVA / DNSTRES / QQYDRLPLS the result was 3.07 (6 of 6 replicates). The variant KVNQLMNIEQMNNKSVA / HTSTREN / QQYHRLPLS showed 1.87 (2 of 6 replicates). For TLYGLSVSMSKNVNNVA / EMTTRED / QQYDRLPLI, the assay gave 0.70 (5 of 6 replicates). The variant SMQSDQIGGNQQTNSIA / GESVTDM / QHYERLPLS gave nd (0 of 6 replicates). The variant HVNHEQLDYKNYENNIA / HASQRLY / QQYSHLPLS showed 0.27 (6 of 6 replicates). The variant HVSESIFAQMKMRNSVA / ENSTRES / QQYDRLPLS gave 2.29 (3 of 6 replicates). The variant KLRSVTGTEKVKGDNVA / EMETRER / QQYNRLPLS gave 0.06 (6 of 6 replicates).

The variant KMSQSVDGLDRNKNSVA / NASTREM / QQYHRLPLS gave 0.27 (6 of 6 replicates). With KLSIFHNVESINKSNVA / EMVTRES / QQYDRLPLS the result was 1.88 (4 of 6 replicates). The variant MISTVMNTLTHEGNNVA / DLQEREK / QQYFRLPLS gave -0.05 (6 of 6 replicates). With KLSGEVMMLQRNDNSVA / DANTRES / QQYHRLPLS the result was -0.16 (6 of 6 replicates). With KLPHLSFVHDREKNNVA / DLNRKAA / QQYDRLPLT the result was 0.12 (6 of 6 replicates). The variant MLSQMWALGMKVKNSVA / QASIRFN / QQYDRLPLM showed 1.38 (1 of 6 replicates). For KMMLSLGEFKQSEDNVA / NMRVSVA / QQYDHLPLT, the assay gave 2.92 (3 of 6 replicates). For TLHANIEYGGGTWKSIA / DNTQRAD / QYYQRLPLG, the assay gave 3.20 (2 of 6 replicates). With HLSDRLSYGKDLQNAVA / GVQARMT / QQYARLPLL the result was 1.12 (6 of 6 replicates).

For KLQMQKLYWSRNKNSVA / EASTRES / QQYHRLPLS, the assay gave 0.15 (6 of 6 replicates). With KVSGLVNFFGHAINSVA / EMETREN / QQYDRLPLS the result was 0.91 (6 of 6 replicates). The variant HVSMLTLGGLKQRNSVA / QMTTREN / QQYDRLPLA showed 1.04 (6 of 6 replicates). The variant HMSMLTLGGLRTRNSVA / QMTTREN / QQYDRLPLA showed nd (0 of 6 replicates). The variant HIDILNRGETLKKDDIA / NADHREQ / QQYFHLPLS showed 0.11 (6 of 6 replicates). The variant MISNVMNTLTRQGNNVA / DLQEREN / QQYFRLPLS showed 0.90 (6 of 6 replicates). With RTTSHESESKGADASVA / EASLLED / QQYHRLPLD the result was 2.32 (6 of 6 replicates). With TISESWMYESRNKNNVA / EESTKYD / QSYFRLPLS the result was 0.34 (6 of 6 replicates). The variant ILDQSQLYESRNKNSVA / NANTREQ / QQYHRLPLS gave -0.58 (6 of 6 replicates).

Picked from the list: the 3 lowest averages where every replicate gave a value.

CDR-L1	CDR-L2	CDR-L3	mean, log10 nM	detected
ILDQSQLYESRNKNSVA	NANTREQ	QQYHRLPLS	-0.58	6 of 6
KLGQSVAMTTRNKNNVA	DLNERER	QQYHRLPLS	-0.40	6 of 6
KLSGEVMMLQRNDNSVA	DANTRES	QQYHRLPLS	-0.16	6 of 6

Empty control strains, which show no peptide, gave a signal in 4% of pairings with all light chain designs; the median was 2.64 and 95% of these signals were weaker than 1.59. No background was subtracted.
The authors averaged sequences with at least three values out of six and counted those with two or fewer as poor binders.

Source: Li et al. 2023 (doi:10.1038/s41467-023-39022-2), MIT Lincoln Laboratory and A-Alpha Bio; data file from the FLAb repository.